As usually defined, the IC50 is the concentration at which inhibition is half-maximal. Low readings indicate greater potency in that assay, high ones weaker potency in that assay.

Protein sequences, listed by entry. Tags and fused reporters are not part of them. Residues count along the entry.
UniProt P35968, 20-1356: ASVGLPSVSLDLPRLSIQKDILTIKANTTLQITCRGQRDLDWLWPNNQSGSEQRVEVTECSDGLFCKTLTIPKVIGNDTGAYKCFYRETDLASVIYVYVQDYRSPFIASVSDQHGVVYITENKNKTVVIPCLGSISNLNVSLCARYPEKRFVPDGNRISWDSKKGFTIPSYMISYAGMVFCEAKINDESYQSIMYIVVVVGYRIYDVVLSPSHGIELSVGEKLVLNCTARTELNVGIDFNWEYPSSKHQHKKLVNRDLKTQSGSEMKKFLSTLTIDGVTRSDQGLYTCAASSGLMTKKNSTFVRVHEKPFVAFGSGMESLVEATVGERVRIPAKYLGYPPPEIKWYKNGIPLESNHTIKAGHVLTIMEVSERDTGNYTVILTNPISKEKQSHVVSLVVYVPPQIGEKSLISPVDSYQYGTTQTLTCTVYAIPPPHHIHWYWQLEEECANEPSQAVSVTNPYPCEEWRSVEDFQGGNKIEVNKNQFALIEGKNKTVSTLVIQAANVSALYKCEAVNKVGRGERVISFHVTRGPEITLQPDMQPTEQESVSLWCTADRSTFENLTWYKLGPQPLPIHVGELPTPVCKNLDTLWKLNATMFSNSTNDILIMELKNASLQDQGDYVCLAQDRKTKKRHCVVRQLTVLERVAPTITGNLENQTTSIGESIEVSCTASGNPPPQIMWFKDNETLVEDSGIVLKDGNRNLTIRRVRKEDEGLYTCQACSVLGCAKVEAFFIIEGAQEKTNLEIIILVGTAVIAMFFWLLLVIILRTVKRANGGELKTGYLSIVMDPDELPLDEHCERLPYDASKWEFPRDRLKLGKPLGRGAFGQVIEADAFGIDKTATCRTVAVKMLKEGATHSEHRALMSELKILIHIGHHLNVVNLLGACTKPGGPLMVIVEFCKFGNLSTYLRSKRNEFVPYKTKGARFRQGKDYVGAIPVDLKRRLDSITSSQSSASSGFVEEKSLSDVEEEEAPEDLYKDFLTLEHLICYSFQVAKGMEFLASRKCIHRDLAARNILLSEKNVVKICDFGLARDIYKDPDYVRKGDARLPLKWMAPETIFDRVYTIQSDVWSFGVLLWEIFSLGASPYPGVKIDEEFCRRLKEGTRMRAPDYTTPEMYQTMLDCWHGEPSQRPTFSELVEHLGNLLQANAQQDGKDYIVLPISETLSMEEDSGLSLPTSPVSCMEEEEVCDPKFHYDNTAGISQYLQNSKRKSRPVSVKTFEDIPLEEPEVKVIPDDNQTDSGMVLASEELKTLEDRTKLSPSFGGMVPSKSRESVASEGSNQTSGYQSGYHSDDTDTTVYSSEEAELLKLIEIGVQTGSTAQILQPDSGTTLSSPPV

Molecules are shown by their SMILES.

The assay deals with KDR (VEGFR2) (Homo sapiens (Human), UniProt P35968). Nature of the assay: SelectScreen Z'-LYTE kinase assay, Assay 540 for KDR (VEGFR2). The assay is classed as biochemical.

`COc1ccc(COc2ncc(Oc3ccc4c(=O)c5cc(C)cc(OCCN(C)C)c5oc4c3)cc2OC)cc1` [Example 12, 4-(2-(Dimethylamino)ethoxy)-6-((5-methoxy-6-((4-methoxybenzyl)oxy)pyridin-3-yl)oxy)-2-methyl-9H-xanthen-9-one] returned an IC50 of more than 10 µM.

Source of the values: patent publication US11028064B2, “Tricyclic heterocyclic derivatives and uses thereof” (AUCKLAND UNISERVICES LIMITED, priority 2016, dated 2021).
